## Ab-14 light chain CDR variants: yeast mating affinities

Binding partner: SARS-CoV-2 spike HR2 peptide, sequence PDVDLGDISGINAS.

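These sequences belong to a second round, designed from the earlier measurements on random variants of the parent. Group labels follow the data file (En: ensemble of fine-tuned language models; GP: Gaussian process model; HC: hill climbing; Gen: genetic algorithm; Gibbs: Gibbs sampling; a sequence that several methods proposed may carry one label only). Affinity was read by AlphaSeq, a pooled yeast mating assay with surface-displayed partners. The frequency of each diploid, read from paired DNA barcodes, reflects how well the two displayed proteins bind. A regression on co-assayed BCL2-family reference pairs converts the normalised counts of each replicate to an apparent Kd. There are six technical replicates.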

Ab-14 is the parent antibody, in scFv form: VH, then a 15-residue (Gly4Ser)3 linker, then VL. The heavy chain is unchanged in all variants.
VH: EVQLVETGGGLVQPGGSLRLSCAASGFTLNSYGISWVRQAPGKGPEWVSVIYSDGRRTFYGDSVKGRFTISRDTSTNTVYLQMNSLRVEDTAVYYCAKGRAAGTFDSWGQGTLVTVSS
VL: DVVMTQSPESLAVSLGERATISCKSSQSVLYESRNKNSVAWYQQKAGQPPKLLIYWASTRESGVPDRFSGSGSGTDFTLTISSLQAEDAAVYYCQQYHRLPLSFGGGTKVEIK

The parent's light chain CDRs are KSSQSVLYESRNKNSVA, WASTRES, QQYHRLPLS; each variant's own CDRs replace them letter for letter.
This list holds designs with more than six substitutions.
Values are apparent Kd, the geometric mean of the replicates that gave a signal; lower means stronger binding.
"nd" marks a missing value. The strain was present, yet no cells mated with the target were sequenced in any replicate, which points to weak or no binding.
As a blank, each scFv also met three strains without target: over all light chain designs, 4% of these pairings were detected, typically at 430 nM and seldom below 38 nM. Also given: how often the same scFv was detected with the empty control strains.

KLWIDMYNGRNKANAVA / EGNILAN / QQYARLPFL [En_Gibbs]: 2.4 nM (6 of 6 replicates; controls 1 of 18).
KLSIFHQIESINKSNVA / EMVTRES / QQYDRLPLS [En_HC]: 61 nM (1 of 6 replicates; controls 0 of 18).
TLYGLMLSMSKNKNSVA / EMTTREK / QQYDRLPLV [En_Gen]: 27 nM (6 of 6 replicates; controls 1 of 18).
QLSLMENHMGDRMWSVA / DANQAKT / QDYFRLPLM [En_Gibbs]: 140 nM (2 of 6 replicates; controls 0 of 18).
MFAGAMYGGGNDWSNIA / EAMTYIK / QQYSRLPLI [En_Gibbs]: nd (0 of 6 replicates; controls 1 of 18).
KWSQLVLGEDRNKNSVA / NASQREE / QQYHRLPLS [GP_Gibbs]: 530 pM (6 of 6 replicates; controls 1 of 18).
KLSMSVDYESRMCNSVA / EASTREE / QQYHRLPLS [GP_Gibbs]: 11 nM (6 of 6 replicates; controls 0 of 18).
KIGDTLNQLMTKKNNVA / DLVMREN / QQYHRLPLS [En_Gen]: 2.1 nM (6 of 6 replicates; controls 2 of 18).
MLGGNLMHEMMKKNNVA / HMTTRVE / QQYHRLPLI [En_Gen]: 40 nM (6 of 6 replicates; controls 2 of 18).
RLQEDNQLGTNIGNNIA / EHQTVFD / QQYAHLPLQ [En_Gibbs]: 36 nM (6 of 6 replicates; controls 1 of 18).
KLRQQTLYETRNKNSVA / SASTREE / QQYHRLPLS [GP_HC]: 1.8 nM (6 of 6 replicates; controls 2 of 18).
KLMTSDLYESRMVNSVA / EASTRMD / QQYHRLPLS [GP_Gibbs]: 580 pM (6 of 6 replicates; controls 0 of 18).
KLSSSWLMEQRNVNSVA / QASQRLL / QQYHRLPLS [GP_Gibbs]: 1.0 nM (6 of 6 replicates; controls 0 of 18).
MAYGGDMMQSVARNSVA / NAETRAD / QDYHRLPLS [En_HC]: 4.8 nM (6 of 6 replicates; controls 2 of 18).
KVQLGLERGNQAYSAVA / GETQKGD / QQYFQLPLG [En_Gibbs]: 7.1 nM (6 of 6 replicates; controls 0 of 18).
QLLMATMQGTYNRNSVA / HAETREN / QSYHRLPLS [En_HC]: 68 nM (2 of 6 replicates; controls 1 of 18).
KLDFLGPYEQRNKNSVA / SASTRES / QQYHRLPLS [GP_Gibbs]: 3.5 nM (6 of 6 replicates; controls 0 of 18).
KLSDPTREWIANQSAVA / EDADTVH / QQYARLPLT [En_Gibbs]: nd (0 of 6 replicates; controls 0 of 18).
MISEMMHMIGAKKNSIA / DLVMRAN / QQYHRLPLS [En_Gen]: 8.5 nM (6 of 6 replicates; controls 6 of 18).
KLSFGELMESRNKNSVA / EASCREE / QQYHRLPLS [GP_Gibbs]: 880 pM (6 of 6 replicates; controls 0 of 18).
KLYQATNMTSSMRNNVA / DLNERER / QQYFRLPLS [En_HC]: 240 nM (6 of 6 replicates; controls 0 of 18).
KMSQSVDGLDRNWNSVA / YASTREM / QQYHRLPLS [GP_Gibbs]: 1.9 nM (6 of 6 replicates; controls 0 of 18).
KVSEFMKGLMMRKDNIA / DNNTRQN / QQYDRLPLS [En_Gen]: 7.5 nM (6 of 6 replicates; controls 1 of 18).
TLWDSIQGGDWAKKNVA / DEQTRMV / QQYYRLPLS [En_Gibbs]: 920 pM (6 of 6 replicates; controls 0 of 18).
LISGVWDYGSRNYNSVA / QTSTRED / QQYDRLPLS [En_HC]: 6.1 nM (6 of 6 replicates; controls 0 of 18).
HLSINLPGQWYMGDSVA / HSERRAE / QQYARLPLG [En_Gibbs]: 29 nM (6 of 6 replicates; controls 1 of 18).
KVSDSAAFLSRNRNSVA / DNSTRGS / QQYHRLPLS [En_HC]: 1.3 nM (6 of 6 replicates; controls 0 of 18).
ILSQSVLMGSHLKNSVA / QASTRFN / QQYHRLPLS [En_HC]: 3.7 nM (6 of 6 replicates; controls 1 of 18).
ALSQSMDMTSRNKNSVA / DLSLREN / QQYHRLPLS [En_HC]: 3.2 nM (6 of 6 replicates; controls 1 of 18).
TISQMTSLFSQTINNVA / EVSTREA / QQYDRLPLM [En_Gen]: 3.9 nM (6 of 6 replicates; controls 1 of 18).
MMSQVTGYGTRMRNNVA / QTSTREA / QQYDRLPLI [En_Gen]: 23 nM (6 of 6 replicates; controls 1 of 18).
KIGYNMGTESFRKDNIA / DVRDREE / QQYYRLPLS [En_Gen]: 6.5 nM (6 of 6 replicates; controls 1 of 18).
KVDQSKLQGQRNKNSVA / EASTRER / QQYHRLPLS [GP_Gibbs]: 910 pM (6 of 6 replicates; controls 2 of 18).
KVQMLGCMLSRNKNSVA / HASTRES / QQYHRLPLS [GP_Gibbs]: 18 nM (6 of 6 replicates; controls 0 of 18).
MIYAANMELGRAANSIA / DNVTRYD / QQYERLPLS [En_Gen]: 480 nM (1 of 6 replicates; controls 0 of 18).
TISEHAQQESHNKNSVA / DLNVRGS / QQYDRLPLS [En_HC]: 2.6 nM (6 of 6 replicates; controls 2 of 18).
MISQLTNMGTFAINSVA / QASIRNS / QQYDRLPLI [En_Gen]: 9.5 nM (6 of 6 replicates; controls 1 of 18).
IIYESVGTLSRNKNSVA / DNSTRES / QQYDRLPLS [En_HC]: 470 nM (5 of 6 replicates; controls 1 of 18).
KMSMSWMQEERNKNSVA / QASQREQ / QQYHRLPLS [GP_Gibbs]: 660 pM (6 of 6 replicates; controls 0 of 18).
NVGQSMDGESRNKNSVA / HQSTRED / QHYHRLPLS [En_HC]: 84 nM (6 of 6 replicates; controls 3 of 18).
MLSQVLHMAGVKKNSIA / DLVLRAN / QQYHRLPLS [En_Gen]: 48 nM (5 of 6 replicates; controls 1 of 18).
KLSEFMRGLMGRKDSIA / DNNTRGS / QQYDRLPLS [En_Gen]: 38 nM (6 of 6 replicates; controls 0 of 18).
KISQMARVGSTHSNSIA / EEATRSK / QQYHRLPLA [En_Gen]: nd (0 of 6 replicates; controls 0 of 18).
TISQSMLYLSNLKNSVA / QAETREE / QQYHRLPIS [En_HC]: 3.6 nM (6 of 6 replicates; controls 1 of 18).
IMTGIIEEGSNNKRNIA / ENKERFQ / QQYWQLPLA [En_Gibbs]: 18 nM (3 of 6 replicates; controls 0 of 18).
KLDQSYLYESRNKNSVA / EASEREV / QQYHRLPLY [GP_Gibbs]: 1.3 nM (6 of 6 replicates; controls 1 of 18).
HIGTVLEGVNVKGRSVA / QMSTREE / QQYDRLPLS [En_Gen]: 2.6 nM (6 of 6 replicates; controls 0 of 18).
KVQQSVNVGSKNKNSLA / EMSTREF / QDYHRLPLS [En_HC]: 7.9 nM (6 of 6 replicates; controls 1 of 18).
HISMMVGTKGYVKNSVA / NAETRED / QQYHRLPLS [En_HC]: 1.4 nM (6 of 6 replicates; controls 1 of 18).
KVYQGINTHLGAHNSIA / QEETRLQ / QQYAHLPLS [En_Gen]: 14 nM (6 of 6 replicates; controls 1 of 18).

Excerpt, the final 6 entries:

CDR-L1,CDR-L2,CDR-L3,group,Kd (apparent),detected,signal with controls
IMTGIIEEGSNNKRNIA,ENKERFQ,QQYWQLPLA,En_Gibbs,18 nM,3/6,0/18
KLDQSYLYESRNKNSVA,EASEREV,QQYHRLPLY,GP_Gibbs,1.3 nM,6/6,1/18
HIGTVLEGVNVKGRSVA,QMSTREE,QQYDRLPLS,En_Gen,2.6 nM,6/6,0/18
KVQQSVNVGSKNKNSLA,EMSTREF,QDYHRLPLS,En_HC,7.9 nM,6/6,1/18
HISMMVGTKGYVKNSVA,NAETRED,QQYHRLPLS,En_HC,1.4 nM,6/6,1/18
KVYQGINTHLGAHNSIA,QEETRLQ,QQYAHLPLS,En_Gen,14 nM,6/6,1/18

The parent sequence was in this pool as ten entries: three were never detected, three once, and four in most replicates, with averages from 2.2 nM to 240 nM.
Values of this round are not directly comparable with the first-round values of the same sequences.
The authors' rule: three or more of the six replicates give a measured affinity, fewer mean a poor binder.

Data: MIT Lincoln Laboratory AlphaSeq set, Li et al. 2023, doi:10.1038/s41467-023-39022-2, as distributed in FLAb.